Columns and labels:
[1] = target: Substance-P receptor (Cavia porcellus) (UniProt P30547); assay: In vivo efficacy expressed as dose ratio for bronchoconstriction induced by ASMSP as agonist for NK1 receptor in anesthetized guinea pig; assay type: functional, organism-based
[2] = target: Substance-K receptor (Cavia porcellus) (UniProt Q64077); assay: In vivo efficacy expressed as dose ratio for bronchoconstriction induced by BANK as agonist for NK2 receptor in anesthetized guinea pig at 30 uM/kg dose by oral administration; assay type: functional, organism-based

Protein sequences, listed by entry. Tags and fused reporters are not part of them.
UniProt P30547, whole entry: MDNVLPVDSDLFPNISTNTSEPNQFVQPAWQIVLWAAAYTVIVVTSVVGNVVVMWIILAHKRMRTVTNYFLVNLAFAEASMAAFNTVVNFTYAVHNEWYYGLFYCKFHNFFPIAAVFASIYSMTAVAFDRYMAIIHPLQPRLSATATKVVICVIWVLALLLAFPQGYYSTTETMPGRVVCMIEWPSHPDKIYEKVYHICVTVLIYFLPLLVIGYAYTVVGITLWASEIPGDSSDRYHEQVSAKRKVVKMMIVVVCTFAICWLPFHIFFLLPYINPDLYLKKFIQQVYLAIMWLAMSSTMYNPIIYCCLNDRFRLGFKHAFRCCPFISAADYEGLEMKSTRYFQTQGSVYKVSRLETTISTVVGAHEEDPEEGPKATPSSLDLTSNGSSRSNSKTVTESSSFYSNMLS
UniProt Q64077, whole entry: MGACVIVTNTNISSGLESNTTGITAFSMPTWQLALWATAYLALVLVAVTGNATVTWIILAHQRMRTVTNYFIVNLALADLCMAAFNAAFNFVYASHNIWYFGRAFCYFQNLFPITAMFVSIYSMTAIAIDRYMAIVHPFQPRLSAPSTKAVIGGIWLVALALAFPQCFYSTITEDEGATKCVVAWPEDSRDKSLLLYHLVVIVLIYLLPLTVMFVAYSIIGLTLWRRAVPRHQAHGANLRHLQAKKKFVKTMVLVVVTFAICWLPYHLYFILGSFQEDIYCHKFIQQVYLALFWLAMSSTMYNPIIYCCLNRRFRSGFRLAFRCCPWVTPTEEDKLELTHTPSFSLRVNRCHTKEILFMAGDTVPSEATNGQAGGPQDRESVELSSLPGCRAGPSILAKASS

Row | Compound | Ratio [1] | Ratio [2]
1 | COc1cc(C(=O)N2CC[C@](CCN3CCC(C(N)=O)(c4ccccc4)CC3)(c3ccc(Cl)c(Cl)c3)C2)cc(OC)c1OC | 5 | 1
2 | CN(C[C@@H](CCN1CCC(c2ccccc2[S@+](C)[O-])CC1)c1ccc(Cl)c(Cl)c1)C(=O)c1cc(C#N)cc2ccccc12 (stereo in doubt) | 23 | 18

Source: ChEMBL document CHEMBL1133817, “Discovery of novel, orally active dual NK1/NK2 antagonists” (Bioorg Med Chem Lett, 2001)
